Reference: PubChem BioAssay AID2696 (Johns Hopkins Ion Channel Center, 2010)

The chains behind the UniProt entries cited, without tags or fusion partners.
UniProt Q61143, whole entry: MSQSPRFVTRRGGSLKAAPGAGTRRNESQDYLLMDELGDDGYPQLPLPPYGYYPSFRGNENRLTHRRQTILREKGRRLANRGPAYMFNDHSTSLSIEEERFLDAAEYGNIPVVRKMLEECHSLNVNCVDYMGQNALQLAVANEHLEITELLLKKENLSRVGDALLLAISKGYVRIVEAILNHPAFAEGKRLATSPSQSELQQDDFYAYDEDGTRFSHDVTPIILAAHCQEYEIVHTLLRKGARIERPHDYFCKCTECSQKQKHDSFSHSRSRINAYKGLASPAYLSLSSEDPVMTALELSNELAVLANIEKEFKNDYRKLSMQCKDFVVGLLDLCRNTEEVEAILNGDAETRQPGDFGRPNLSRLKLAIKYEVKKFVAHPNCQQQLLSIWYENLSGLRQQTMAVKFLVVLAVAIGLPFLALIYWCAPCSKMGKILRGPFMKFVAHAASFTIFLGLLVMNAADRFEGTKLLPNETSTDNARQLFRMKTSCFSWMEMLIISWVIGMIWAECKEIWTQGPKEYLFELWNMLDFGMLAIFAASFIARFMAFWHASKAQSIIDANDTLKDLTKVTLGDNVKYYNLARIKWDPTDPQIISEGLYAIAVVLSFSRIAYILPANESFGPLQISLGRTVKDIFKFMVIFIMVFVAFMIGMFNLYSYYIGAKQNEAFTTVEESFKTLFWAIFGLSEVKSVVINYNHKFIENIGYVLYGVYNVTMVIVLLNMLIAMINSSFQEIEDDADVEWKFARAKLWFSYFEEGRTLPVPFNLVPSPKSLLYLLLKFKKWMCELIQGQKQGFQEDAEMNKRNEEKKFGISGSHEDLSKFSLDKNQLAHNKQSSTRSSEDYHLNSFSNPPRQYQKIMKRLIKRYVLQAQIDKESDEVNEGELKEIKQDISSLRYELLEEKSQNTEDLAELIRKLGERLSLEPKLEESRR

Biological target: Short transient receptor potential channel 6 (Mus musculus) (UniProt Q61143)
Experiment: TRPC6 inhibitor potency, dose response, cell-based, mouse TRPC6, HEK293, membrane potential (AID 2696)
Details: TRPC6-expressing cells, fluorescence ratio calcium influx

Row | Structure (SMILES) | IC50 [µM]
1 | O=C(OC1CN2CCC1CC2)C1c2ccccc2Oc2ccccc21 (configuration not stated) | 0.32
2 | CCC(CO)(C(=O)OC1CN2CCC1CC2)c1ccccc1 (configuration not stated) | 7.08
